Source: US5929063A, “Mercapto and seleno derivatives as inhibitors of nitric oxide synthase” (priority 1995, dated 1999)
pEC50: −log10 of the molar value.

Target: T1, ecNOS (Bos taurus, UniProt P29473)
T1 construct: the intimal surface of fresh bovine aortae was scraped and homogenized; from tissue; host or cells: homogenate of intimal scrapings of fresh bovine aortae
Test: ecNOS activity from intimal scrapings of fresh bovine aortae (conversion of [3H]-L-arginine to [3H]-L-citrulline)
Assay type: biochemical
Method: The intimal surface of fresh bovine aortae was scraped in the presence of homogenation buffer composed of 50 mM Tris-HCl, 0.1 mM ethylenediamine tetraacetic acid (EDTA) and 0.1 mM ethyleneglycol bis (beta-aminoethyl ether) (EGTA). Conversion of [^3 H]-L-arginine to [^3 H]-L-citrulline was measured in the homogenates as follows: cell homogenate (50 μl) was incubated in the presence of [^3 H]-L-arginine (10 μM, 5 kBq/tube), NADPH (2 mM), calmodulin (30 nM), tetrahydrobiopterin (5 μM) and calcium (2 mM) for 20 minutes at 37° C. in N-2-hydroxethyl piperazine-N-2-ethane sulfonic acid (HEPES) buffer (pH 7.5). Reactions were stopped by dilution with 1 ml of ice cold HEPES buffer (pH 5.5) containing EGTA (2 mM) and EDTA (2 mM). Reaction mixtures were applied to Dowex 50W (Na^+ form) columns and the eluted [^3 H]-L-citrulline activity was measured by scintillation counting. bNOS activity was measured using similar methods in homogenates of whole rat brains.
For a preparation rich in ecNOS, the intimal surface of fresh bovine aortae was scraped and homogenized. The homogenization buffer was composed of 50 mM tris-HCL, 0.1 mM EDTA, 0.1 mM EGTA and 1 mM phenylmethylsulfonyl chloride (pH 7.4). […] Conversion of [^3 H]-L-arginine to [^3 H]-L-citrulline was measured in the homogenates as described in Example 3 above.

SMILES: CNC(=N)NCCC[C@H](N)C(=O)O [L-NMA, N^G -Methyl-L-arginine, reference compound]
- pEC50: 5.30
